{"source": "patent US8329429B2", "about": "“Method of enhancing recombinant protein production” (Induce Biologics Inc., priority 2007, dated 2012)", "test_system": "C2C12 cells", "experiment": "C2C12 alkaline phosphatase assay of rhBMP after PreScission digestion", "type": "cell-based", "settings": "for ALP activity (U/μg protein) mean ± SD: n=4", "source_text": "Alkaline phosphatase induction in C2C12 cells: The activity of recombinant hBMP-2 protein is quantitated based upon induction of alkaline phosphatase in in vitro cultured C2C12 cells, as has been described (see, e.g., Peel et al. J Craniofacial Surg. 2003; 14:284-291 and Hu et al. Growth Factors 2004; 22:29033).\nC2C12 cells (ATCC accession number CRL-1772, Manassas, Va.) are passaged before confluent and resuspended at 0.5×10^5 cells/ml in MEM supplemented with 15% heat-inactivated fetal bovine serum, antibiotics and 50 μg/ml ascorbic acid. One ml of cell suspension is seeded per well of a 24 well tissue culture plate (BD Falcon, Fisher Scientific Cat #08-772-1). An aliquot of test BMP-2 sample is added and the cultures maintained at 37° C. and 5% CO2. Test BMP-2 samples included conditioned media, purified recombinant hBMP-2 isolated from conditioned media by heparin affinity chromatography, and as a positive control a commercially available purified recombinant hBMP-2 (R&D Systems, Minneapolis, USA). Control cultures (cultured in media without added BMP-2 sample) are cultured for 2 to 7 days. Medium is changed every two days.\nAt harvest cultures are rinsed with Tris buffered saline (20 mM Tris, 137 mM NaCl, pH 7.4) and M-Per lysis buffer (Pierce Biotechnology Inc., Rockford, Ill., catalogue #78501) is added. The cell layer is scraped into Eppendorf tubes and sonicated. The lysate is centrifuged at 5000×g at 5° C. for 10 minutes, and the supernatant assayed for alkaline phosphatase (ALP) by monitoring the hydrolysis of nitrophenol phosphate in alkaline buffer (Sigma-Aldrich, St. Louis Mo., catalog P5899) as described in Peel et al. J Craniofacial Surg. 2003; 14:284-291 or by using the Alkaline Phosphatase detection kit, Fluorescence (Sigma-Aldrich, catalogue #APF) according to manufacturer's instructions. To normalize the ALP activity the cellular protein content in each well is also assayed using the Coomasie (Bradford) Protein Assay (Pierce Biotechnology Inc., catalogue #23200). The normalized ALP activity for each sample is calculated by dividing the ALP activity per well by the protein content per well. An activity score is calculated by dividing the ALP activity for each sample by the mean ALP activity of the control and is compared to the score achieved by the positive BMP control.\nPreparation of test materials: PreScission protease was obtained from Amersham Biosciences (GE Healthcare, Buckinghamshire, U.K) and was prepared according to the manufacturer's instructions. Recombinant hBMP-2 and rhBMP-7 (both CHO cell produced) were obtained from R&D Systems. The rhBMP samples were resuspended in 4 mM HCl to a final concentration of 10 μg/ml. Bovine serum albumin (BSA) was not included so that the only substrate for the protease was BMP. The cleavage buffer was prepared (50 mM Tris-HCl, 150 mM NaCl, 1 mM EDTA, pH 7).\nAssessment of activity: Samples underwent digestion at room temperature for 6 hours. Reactions were stopped by freezing at −20° C. Digestion samples were diluted in alpha MEM+15% FBS and tested for BMP activity using the C2C12 assay described in Example 1.", "data": [{"substance": "rhBMP-2: recombinant human BMP-2, CHO cell produced, obtained from R&D Systems", "values": [{"measurement": "ALP activity (U/μg protein) mean ± SD", "setting": "group 2: 20 μl rhBMP (10 μg/ml), no protease, no cleavage buffer (unincubated)", "result": "19.0 ± 2.0", "unit": "U/μg protein"}, {"measurement": "ALP activity (U/μg protein) mean ± SD", "setting": "group 3: 20 μl rhBMP + 15 μl PreScission protease + 165 μl cleavage buffer, room temperature 6 hours", "result": "12.5 ± 1.0", "unit": "U/μg protein"}, {"measurement": "ALP activity (U/μg protein) mean ± SD", "setting": "group 4: 20 μl rhBMP + 180 μl cleavage buffer alone, room temperature 6 hours", "result": "12.0 ± 0.5", "unit": "U/μg protein"}, {"measurement": "activity after PreScission digestion", "setting": "room temperature for 6 hours", "result": "remained active"}, {"measurement": "activity after PreScission digestion compared to control BMP incubated in cleavage buffer alone", "setting": "room temperature for 6 hours", "result": "No loss of activity"}]}]}
